Biological target: GCase (Homo sapiens (Human), UniProt P04062)
Assay: biochemical

Chains of the proteins cited; added tags and fusions are not shown. Residues count along the entry.
UniProt P04062, 40-536: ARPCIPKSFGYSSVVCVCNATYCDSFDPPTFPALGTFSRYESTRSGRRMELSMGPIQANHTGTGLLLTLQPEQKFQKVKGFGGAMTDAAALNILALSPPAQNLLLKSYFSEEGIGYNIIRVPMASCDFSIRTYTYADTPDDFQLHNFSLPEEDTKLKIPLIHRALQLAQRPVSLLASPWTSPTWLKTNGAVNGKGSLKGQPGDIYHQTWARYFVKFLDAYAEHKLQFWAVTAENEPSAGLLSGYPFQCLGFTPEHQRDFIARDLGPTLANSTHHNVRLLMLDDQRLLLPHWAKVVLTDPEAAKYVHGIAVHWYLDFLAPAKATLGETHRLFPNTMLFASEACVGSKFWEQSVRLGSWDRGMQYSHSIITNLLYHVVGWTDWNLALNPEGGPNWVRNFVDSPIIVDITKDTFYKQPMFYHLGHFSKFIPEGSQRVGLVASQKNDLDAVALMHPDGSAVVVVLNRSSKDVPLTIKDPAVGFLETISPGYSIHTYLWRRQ

Row | IC50 [µM] | SMILES
1 | 9.36 ± 1.16 | Nc1ccc(CN2C[C@H](CO)[C@@H](O)[C@H](O)C2)cc1 [Compound 12, (3R,4R,5R)-1-(4-aminobenzyl)-5-(hydroxymethyl)piperidine-3,4-diol]
2 | 41.7 ± 3.05 | CCCCCCCN1C[C@H](CO)[C@@H](O)[C@H](O)C1 [Compound 3, (3R,4R,5R)-1-heptyl-5-(hydroxymethyl)piperidine-3,4-diol]
3 | 4 ± 0.035 | CC(C)=CCN1C[C@H](CO)[C@@H](O)[C@H](O)C1 [Compound 4, (3R,4R,5R)-5-(hydroxymethyl)-1-(3-methylbut-2-enyl)piperidine-3,4-diol]
4 | 19.3 ± 1.24 | OC[C@H]1CN(Cc2ccncc2)C[C@@H](O)[C@@H]1O [Compound 19, (3R,4R,5R)-5-(hydroxymethyl)-1-(pyridin-4-ylmethyl)piperidine-3,4-diol]
5 | 69.5 ± 8.18 | Cc1ccccc1CN1C[C@H](CO)[C@@H](O)[C@H](O)C1 [Compound 7, (3R,4R,5R)-5-(hydroxymethyl)-1-(2-methylbenzyl)piperidine-3,4-diol]
6 | 280 ± 62.6 | OC[C@H]1CN(Cc2ccco2)C[C@@H](O)[C@@H]1O [Compound 17]
7 | 27.6 ± 0.49 | OC[C@H]1CN(Cc2cccs2)C[C@@H](O)[C@@H]1O [Compound 18, (3R,4R,5R)-5-(hydroxymethyl)-1-(thiophen-2-ylmethyl)piperidine-3,4-diol]
8 | 49.2 ± 5.5 | OC[C@H]1CN(CC2CCOCC2)C[C@@H](O)[C@@H]1O [Compound 15, (3R,4R,5R)-5-(hydroxymethyl)-1-((tetrahydro-2H-pyran-4-yl)methyl)piperidine-3,4-diol]
9 | 130 ± 14.7 | Cc1ccc(CN2C[C@H](CO)[C@@H](O)[C@H](O)C2)cc1 [Compound 9, (3R,4R,5R)-5-(hydroxymethyl)-1-(4-methylbenzyl)piperidine-3,4-diol]
10 | 5.99 ± 0.11 | COCCN1C[C@H](CO)[C@@H](O)[C@H](O)C1 [Compound 5, (3R,4R,5R)-5-(hydroxymethyl)-1-(2-methoxyethyl)piperidine-3,4-diol]
11 | 2.13 ± 0.17 | CC(C)CCCN1C[C@H](CO)[C@@H](O)[C@H](O)C1 [Compound 24, (3R,4R,5R)-5-(hydroxymethyl)-1-(4-methylpentyl)piperidine-3,4-diol]

Row | SMILES | IC50 [µM]
12 | OC[C@H]1CN(Cc2ccccc2)C[C@@H](O)[C@@H]1O [Compound 6, (3R,4R,5R)-1-benzyl-5-(hydroxymethyl)piperidine-3,4-diol] | 200 ± 61.8
